Experimental data: patent publication US8436183B2, “Synthetic multimerizing agents” (ARIAD Pharmaceuticals, Inc., priority 1994, dated 2013)

The chains behind the UniProt entries cited, without tags or fusion partners. Where a name states a change or a piece, a line headed by the entry shows the natural chain unless it says otherwise.
UniProt P62942: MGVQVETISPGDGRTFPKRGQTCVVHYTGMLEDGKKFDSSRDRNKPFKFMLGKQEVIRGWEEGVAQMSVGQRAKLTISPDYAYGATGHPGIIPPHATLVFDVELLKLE

How the values were obtained:
Format in all cases: cell-based
[1] = target: T1, FKBP-containing fusion proteins (wt FKBP) (Homo sapiens, UniProt P62942); experiment: Transcription Assay: activation of transcription (wt; stable); details: @ 1000 nM; each value an individual experiment
T1 construct: FKBP domains probably in several copies

[2] = target: T2, FAS-FKBP fusion (wt FKBP) in HT1080 cells (Homo sapiens, UniProt P62942); experiment: Apoptosis Assay: Fas killing (wt, stable); details: @ 1000 nM
T2 construct: fused on or other part: Fas intracellular effector domain (gives the death read-out)

[3] = target: T3, FAS-FKBP fusion (36V FKBP) in HT1080 cells (Homo sapiens, UniProt P62942, F37V); experiment: Apoptosis Assay: Fas killing (36V, stable); details: mean values
T3 construct: fused on or other part: Fas intracellular effector domain (gives the death read-out)

CCC(CC)C(=O)N1CCCC[C@H]1C(=O)O[C@H](CCc1ccc(OC)c(OC)c1)c1cccc(OCC(=O)NCCNC(=O)COc2cccc([C@@H](CCc3ccc(OC)c(OC)c3)OC(=O)[C@@H]3CCCCN3C(=O)C(CC)CC)c2)c1 [AP1891]
activation of transcription (wt; stable), % @ 1000 [1]: 0% @ 1000
Fas killing (wt, stable), % @ 1000 [2]: 0% @ 1000
EC50 [3]: 20 nM
